Test results as given in paper PMC3529200 (Bioorganic & medicinal chemistry letters, 2010).

System: SHR hypertension
Experiment: SHR rat model of hypertension
Format: in vivo
Details: 100 mg/kg

## CC(=O)N1CCC(NC(=O)NC23CC4CC(CC(C4)C2)C3)CC1 [Compound 14a, 1-(1-Acetyl-piperidin-4-yl)-3-adamantan-1-yl-urea]
  effect on mean blood pressure: no effect
